# Experimental data: article PMC7307925, “Human Serum Albumin Binding in a Vial: A Novel UV-pH Titration Method To Assist Drug Design” (Journal of Medicinal Chemistry, 2020)
# Amino acid sequences for entries named in this document (tags omitted). Residues count along the entry.
# UniProt P02768, 25-609: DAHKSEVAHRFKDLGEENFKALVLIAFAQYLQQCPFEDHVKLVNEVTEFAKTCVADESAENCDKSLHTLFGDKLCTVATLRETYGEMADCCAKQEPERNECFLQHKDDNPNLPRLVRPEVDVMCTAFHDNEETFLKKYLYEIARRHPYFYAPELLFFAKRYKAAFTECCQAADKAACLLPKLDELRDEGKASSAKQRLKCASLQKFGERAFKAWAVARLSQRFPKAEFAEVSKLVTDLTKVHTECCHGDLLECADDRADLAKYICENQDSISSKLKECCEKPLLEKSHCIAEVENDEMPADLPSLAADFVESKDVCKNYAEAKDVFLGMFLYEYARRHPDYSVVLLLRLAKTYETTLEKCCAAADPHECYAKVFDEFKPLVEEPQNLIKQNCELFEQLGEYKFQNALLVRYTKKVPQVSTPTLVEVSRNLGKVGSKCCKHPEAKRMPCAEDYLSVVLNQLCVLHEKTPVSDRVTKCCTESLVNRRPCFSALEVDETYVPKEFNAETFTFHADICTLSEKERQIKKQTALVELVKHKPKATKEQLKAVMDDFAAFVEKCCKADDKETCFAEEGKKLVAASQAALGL
# Tests used:
# [1] = molecular target: human serum albumin (HSA) (Homo sapiens, UniProt P02768); test: HSA binding by rapid equilibrium dialysis (RED); settings: 10 µM compound, 4 g/L HSA in PBS pH 7.4, 37 °C, 4.5 hours
# [2] = UV-pH titration, pKa in aqueous medium (SiriusT3 fast UV pKa method); settings: absence of HSA, ISA-water 0.15 M KCl, 25.0 °C
substance,measurement,setting,value
Tenoxicam,HSA% (RED),[1],96.8 ± 0.0%
same,Exp. aqueous pKa1 (pKa of monoprotic APIs),[2],1.14 ± 0.03
same,Exp. aqueous pKa2,[2],5.21 ± 0.01
